Assay results as given in patent EP3120851A1, “4-AMINO-6-(2,6-DICHLOROPHENYL)-8-METHYL-2-(PHENYLAMINO)-PYRIDO[2,3-D]PYRIMIDIN-7(8H)-ONE FOR TREATMENT OF SOLID CANCERS” (Pangaea Biotech S.L., priority 2015, dated 2017).

How the values were obtained:
[1] = test system: H3122 Cells; test: MTT cell viability assay, combinations (Chou-Talalay method); type: cell-based; settings: TKI single agent vs with compound (1)
Description: (§1) The combinations comprising the compound of formula (1) were tested using an MTT proliferation assay in a panel of tumor cell lines of different origins. All culture materials were obtained from the sources described in Example 2. In the Chou-Talalay method, which is the standard, universally known methodology to determine drug interactions, the two drugs under study are maintained at a fixed ratio of IC50 single agent (drug 1):IC50 single agent (drug 2) while the concentration of total amount of drugs in the combination is varied and the 20% (IC20), 50% (IC50) and 80% (IC80) of growth inhibition of the combination is determined.
(§2) In the activity assays on cell lines the following terms are used: • IC50: Drug concentration at which 50% growth inhibition is achieved. • TKI IC50: The IC50 of the tyrosine kinase inhibitor as single agent. • Compound (1) IC50: The IC50 of compound (1) as single agent. • CI@IC20: The combination index of the combination consisting of drug 1 and drug 2 at a weight ratio equal to IC50 of drug 1:IC50 of drug 2 wherein said combination is used at a total amount that achieves 20% of growth inhibition. • CI@IC50: The combination index of the combination consisting of drug 1 and drug 2 at a weight ratio equal to IC50 of drug 1:IC50 of drug 2, wherein said combination is used at a total amount that achieves 50% of growth inhibition. • CI@IC80: The combination index of the combination consisting of drug 1 and drug 2 at a weight ratio equal to IC50 of drug 1:IC50 of drug 2, wherein said combination is used at a total amount that achieves 80% of growth inhibition. • Combination TKI IC50: The combination index at a tyrosine kinase inhibitor concentration that corresponds to the IC50 (single agent). • The combination index (CI) concept was introduced by Chou T.C. and Talalay P.(Chou TC, Talalay P. Adv Enzyme Regul 1984;22:27-55). The derived combination index equation for two drugs is (D = dosage or concentration): CI = ((D)1)/((Dx)1) + ((D)2)/((Dx)2) [formula] where (Dx)1 is the concentration of drug 1 "alone" that inhibits growth at a x% (i.e. (D50)1 is the concentration of drug 1 "alone" that inhibits growth at a 50%), (Dx)2 is the concentration of drug 2 "alone" that inhibits growth at a x%, (D)1 and (D)2 refer to the concentration of drug 1 and drug 2, respectively, in the combination, wherein the combination inhibits growth at the same x%. The CI Value quantitatively defines synergism (CI<1) (in particular, CI values of CI<0.7 indicates strong synergism, 0.7<CI<0.85 indicates moderate synergism, 0.85<CI<1 indicates slight synergism), additive effect (CI=1) and antagonism (CI>1). Based on the above equation, a plot of CI values at different effect levels (fa's) can be determined. Entering a series of "dose" ((D1), (D2), ((Dx)1 and (Dx)2) and % of growth inhibition (%x or effect (fa))" into an excel sheet for each drug alone and their combinations, the CI values at different x% (or fa levels) are obtained using the above equation. This plot is also called the Fa-CI plot or the Chou-Talalay plot.
(§3) Cell viability in response to combination treatment was assessed by the Thiazolyl Blue Tetrazolium Bromide (MTT) (Sigma, St Louis, MO) assay. Cells from each cell line were seeded at 2000 to 10000 per well in 96-well plates. […] Twenty-four hours after seeding, cells were exposed to compound (1), commercial drug or combinations thereof for 72 h. […]

[2] = test system: HCC78 cells; test: as above; type: cell-based; settings: TKI single agent vs with compound (1)
Description: as §1, §2, §3

[3] = test system: H2228 Cells; test: as above; type: cell-based; settings: TKI single agent vs with compound (1)
Description: as §1, §2, §3

[4] = test system: NSCLC patients with ALK transforming rearrangements; settings: phase I clinical trial, Kwak et al., N Engl J Med, 2010, cited from earlier work

C[C@@H](Oc1cc(-c2cnn(C3CCNCC3)c2)cnc1N)c1c(Cl)ccc(F)c1Cl [Crizotinib, 3-[(1R)-1-(2,6-dichloro-3-fluorophenyl)ethoxy]-5-(1-piperidin-4-ylpyrazol-4-yl)pyridin-2-amine]
Fold change in the TKI IC50 [1]: 6.552 fold
Fold change in the TKI IC50 ([1]; listed as crizotinib): 6.5 fold
Fold change in the TKI IC50 [2]: 28.755 fold
Fold change in the TKI IC50 ([2]; listed as crizotinib): ~30 fold
Fold change in the TKI IC50 [3]: 4.717 fold
probability of progression-free survival at 6 months ([4]; 6 months): 72%
overall response rate [4]: 57%
